Laboratory results from patent US10052311B2, “PPAR compounds for use in the treatment of fibrotic diseases” (INVENTIVA, priority 2014, dated 2018).

Test system: CCl4-exposed mice
Assay: Carbon tetrachloride (CCl4)-induced liver fibrosis in mice
Format: in vivo, mouse
Conditions: 5 mg/kg/day po 22 days, vs vehicle

CN(CCOc1ccc(CC2SC(=O)NC2=O)cc1)c1ccccn1 (stereo not shown) [rosiglitazone, reference compound]
decrease of collagen levels (hepatic fibrosis): 54%
